Assay results: US20250109275A1, “AMINE FATTY ACID ADDUCTS AS TIRE COMPOUNDING ADDITIVES” (priority 2023, published 2025)

Tests used:
[1] = Pour point of the additive; format: physicochemical; set-up: unit not given here; conditions: neat additive
[2] = Flash point of the additive; format: physicochemical; conditions: neat additive

- Pour Point [1]: 45
- Flash Point [2]: >200 C.
Substance: triethylenetetramine (TETA) oleic acid amidoamine [Inventive Ex. 4]
